Results on 74 compounds are retold here after PubChem BioAssay AID588458 (Sanford-Burnham Center for Chemical Genomics, 2011).

By UniProt entry, the sequences of proteins in these tests, tags left out. Where a name states a change or a piece, a line headed by the entry shows the natural chain unless it says otherwise.
UniProt P26358: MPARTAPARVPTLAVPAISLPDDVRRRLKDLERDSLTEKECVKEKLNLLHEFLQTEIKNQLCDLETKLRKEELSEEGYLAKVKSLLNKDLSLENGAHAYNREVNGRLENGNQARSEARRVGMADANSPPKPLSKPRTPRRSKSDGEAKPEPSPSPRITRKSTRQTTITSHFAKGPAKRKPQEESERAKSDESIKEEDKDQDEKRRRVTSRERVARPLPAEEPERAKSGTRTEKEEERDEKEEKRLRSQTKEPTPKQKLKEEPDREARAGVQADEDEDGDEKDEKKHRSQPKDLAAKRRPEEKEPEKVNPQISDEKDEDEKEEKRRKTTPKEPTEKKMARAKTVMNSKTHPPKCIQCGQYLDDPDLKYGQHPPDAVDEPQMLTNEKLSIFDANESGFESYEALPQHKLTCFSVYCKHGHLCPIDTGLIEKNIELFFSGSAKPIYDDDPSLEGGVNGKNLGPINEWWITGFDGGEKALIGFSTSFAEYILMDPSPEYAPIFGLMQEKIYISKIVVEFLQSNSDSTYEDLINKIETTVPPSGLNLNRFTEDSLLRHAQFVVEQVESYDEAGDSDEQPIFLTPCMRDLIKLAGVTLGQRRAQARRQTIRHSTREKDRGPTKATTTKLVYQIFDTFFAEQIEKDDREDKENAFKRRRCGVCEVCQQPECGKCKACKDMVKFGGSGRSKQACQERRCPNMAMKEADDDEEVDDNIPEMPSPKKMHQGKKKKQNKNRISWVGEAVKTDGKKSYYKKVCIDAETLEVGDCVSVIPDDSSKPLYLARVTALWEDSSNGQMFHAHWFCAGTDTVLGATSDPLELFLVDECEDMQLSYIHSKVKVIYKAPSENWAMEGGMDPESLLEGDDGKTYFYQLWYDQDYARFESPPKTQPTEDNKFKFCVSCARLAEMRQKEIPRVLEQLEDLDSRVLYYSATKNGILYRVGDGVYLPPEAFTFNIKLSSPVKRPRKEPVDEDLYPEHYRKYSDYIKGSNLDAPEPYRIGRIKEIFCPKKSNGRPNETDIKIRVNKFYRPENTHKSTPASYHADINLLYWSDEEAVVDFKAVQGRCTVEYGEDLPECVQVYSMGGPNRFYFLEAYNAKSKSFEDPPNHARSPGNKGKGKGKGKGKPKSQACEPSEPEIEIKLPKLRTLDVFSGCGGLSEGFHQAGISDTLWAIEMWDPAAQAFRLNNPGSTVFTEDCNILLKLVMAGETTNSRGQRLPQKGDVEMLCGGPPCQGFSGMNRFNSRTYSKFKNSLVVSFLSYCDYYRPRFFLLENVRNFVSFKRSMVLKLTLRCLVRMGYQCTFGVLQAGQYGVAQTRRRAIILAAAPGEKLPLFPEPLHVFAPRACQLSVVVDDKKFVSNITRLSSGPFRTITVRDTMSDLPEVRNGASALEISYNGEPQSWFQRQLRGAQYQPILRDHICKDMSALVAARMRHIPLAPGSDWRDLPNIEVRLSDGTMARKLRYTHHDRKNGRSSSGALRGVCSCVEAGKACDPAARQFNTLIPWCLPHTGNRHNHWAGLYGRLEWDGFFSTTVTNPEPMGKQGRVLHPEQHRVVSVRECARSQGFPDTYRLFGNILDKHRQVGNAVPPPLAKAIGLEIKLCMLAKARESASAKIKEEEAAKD

This is a selection; strong and weak results do not stand in their true shares. The source made the active and inactive calls. Cut-off read from the data, not from the text of the source: active = inhibition above about 50%; inactive = the rest.

The target in the test is DNA (cytosine-5)-methyltransferase 1 (Homo sapiens) (UniProt P26358). As to the kind of experiment: human DNMT1 methyltransferase inhibitors, primary screen, biochemical, molecular beacon, fluorescence, HinP1I cleavage, uHTS (AID 588458). The following applies: at 10 µM, stronger effect = higher value.
`COc1ccccc1CNC(=O)COC(=O)C(O)(c1ccccc1)c1ccccc1`: the inhibition (reported as % activation of signal) was inactive: -0.66%.

For the compound `Clc1n[nH]nc1-c1nn[nH][15n]1`, the inhibition (reported as % activation of signal) is inactive: 5.27%.

As for `O=P1(N(CCCl)CCCl)NCCC(C(F)(F)F)O1` (centres undefined), the inhibition (reported as % activation of signal) is inactive: -0.97%. `CC(C)(C)C(=O)NC(Sc1ncccn1)C(Cl)(Cl)Cl` (centres undefined): the inhibition (reported as % activation of signal) is inactive: -0.11%.

Turning to `CCOP(=O)(Nc1ccc(C)cn1)OCC`, the inhibition (reported as % activation of signal) was inactive: 0.65%.

For `CN(CCCl)Cc1cc(Cl)c(NC2=NCCN2)c(Cl)c1`, the inhibition (reported as % activation of signal) was inactive: -7.65%. Take `CCC1=CC2Cc3nc4ccc(Cl)cc4c(N)c3C(C1)C2` (centres undefined): the inhibition (reported as % activation of signal) is inactive: 7.43%. For the compound `O=P1(Nc2ccccn2)COc2ccccc2OC1`, the inhibition (reported as % activation of signal) was inactive: 13.2%. Next, `CCOP(=O)(NC(=NC(C)c1ccccc1)NC(C)c1ccccc1)OCC` (centres undefined): inactive: -0.92%; `COc1cc(C2NCCC3(OCCO3)C2(C)C)cc(OC)c1OC` (centres undefined): inactive: 8.15%; `CCOP(=O)(Nc1cccc2ccccc12)OCC`: inactive: -0.17%.

For the compound `CCCOP(=S)(Nc1nc(N)cc(=O)[nH]1)OCCC`, the inhibition (reported as % activation of signal) was inactive: -2.88%. Take `Cc1ccc(NCCc2c([N+](=O)[O-])cc([N+](=O)[O-])cc2[N+](=O)[O-])cc1`: the inhibition (reported as % activation of signal) was inactive: -12.8%. As for `Nc1cccc2c([As](=O)(O)O)cccc12`, the inhibition (reported as % activation of signal) was active: 75.6%. Take `Cc1cccc(OCC(=O)OC2CN3CCC2CC3)c1` (centres undefined): the inhibition (reported as % activation of signal) is inactive: 1.41%. `O=[As](O)(c1cccc(O)c1)c1cccc(O)c1`: the inhibition (reported as % activation of signal) was inactive: 2.68%. Consider `O=[As](O)(O)c1cccnc1`, for which the inhibition (reported as % activation of signal) is inactive: -0.56%. As for `COc1cc(C(=O)NCC2(N3CCOCC3)CCCCC2)cc(Cl)c1OC(C)C`, the inhibition (reported as % activation of signal) was inactive: 3.91%.

As for `CS(=O)(=O)c1ccc(Cl)c(NC(=O)COC(=O)C(O)(c2ccccc2)c2ccccc2)c1`, the inhibition (reported as % activation of signal) is inactive: -0.93%.

With `O=C(OC1CN2CCC1CC2)c1ccc(Cl)cc1` (centres undefined), the inhibition (reported as % activation of signal) is inactive: 0.33%. As for `O=[N+]([O-])c1ccc2c(c1)nnn2O`, the inhibition (reported as % activation of signal) is inactive: 3.25%. As to `CN(C)C(=O)c1cc([N+](=O)[O-])cc2c1-c1c(cc([N+](=O)[O-])cc1[N+](=O)[O-])C2=O`, the inhibition (reported as % activation of signal) was inactive: 3.48%. On to `CN(C(=O)Cc1ccc(Cl)c(Cl)c1)[C@H]1CC[C@@]2(CCCO2)C[C@@H]1N1CCCC1`, for which the inhibition (reported as % activation of signal) was inactive: -2.21%. Next, `N#CCCN(C(=O)COC(=O)C(O)(c1ccccc1)c1ccccc1)c1ccc(F)cc1`: inactive: 1.93%; `CCOP1(=S)c2c(C)nn(CCC#N)c2N=C(c2ccc(F)cc2)N1C` (centres undefined): inactive: 1.01%. Next, `CN(C(=O)Cc1ccccc1)[C@@H]1CC[C@]2(CCCO2)C[C@H]1N1CCCC1`: inactive: 1.55%; `NC(=O)Nc1ccc([As](=O)(O)O)cc1`: inactive: 1.86%. Next, `O=C(O)COc1ccc([As](=O)(O)O)cc1[N+](=O)[O-]`: inactive: -8.96%. `Nc1ccccc1[As](=O)(O)c1ccccc1`: the inhibition (reported as % activation of signal) was inactive: -2.25%. For `CS(=O)(=O)c1cc([N+](=O)[O-])c2no[n+]([O-])c2c1`, the inhibition (reported as % activation of signal) is inactive: -6.93%. In the case of `CCOP1(=S)c2c(C)nn(CCC#N)c2N=C(c2ccccc2F)N1C` (centres undefined), the inhibition (reported as % activation of signal) is inactive: -3.85%. On to `O=P(Nc1nccs1)(Oc1ccccc1)Oc1ccccc1`, for which the inhibition (reported as % activation of signal) was inactive: 9.61%. With `O=P(Nc1nccs1)(c1ccccc1)c1nc2ccccc2s1` (centres undefined), the inhibition (reported as % activation of signal) was active: 51.1%.

`CC(C)NC(=O)NP(=O)(Oc1ccccc1)Oc1ccccc1`: the inhibition (reported as % activation of signal) was inactive: 4.19%. Turning to `CCN(CC)C(=S)SC(NC=O)C(Cl)(Cl)Cl` (centres undefined), the inhibition (reported as % activation of signal) was inactive: 2.48%.

Turning to `O=C(OC1CN2CCC1CC2)c1cccc2[nH]cnc12` (centres undefined), the inhibition (reported as % activation of signal) is inactive: -1.77%. Take `O=[N+]([O-])c1cc([N+](=O)[O-])c(-c2ccn[nH]2)s1`: the inhibition (reported as % activation of signal) is inactive: -2.4%.

Consider `COC(=O)C1(C)COP(=O)(N2CCCCCC2)OC1` (centres undefined), for which the inhibition (reported as % activation of signal) was inactive: 5.03%. With `CC(C)c1ccc(OP(=O)(Nc2ccccn2)Oc2ccccc2F)cc1` (centres undefined), the inhibition (reported as % activation of signal) is inactive: 4.97%. Turning to `ClCCSc1nnc(-c2cccnc2)o1`, the inhibition (reported as % activation of signal) is inactive: -0.9%. In the case of `Cc1ccc2nc3c(c(C)c2c1)CC(C(Cl)Cl)S3` (centres undefined), the inhibition (reported as % activation of signal) is inactive: -2.47%. As to `Cc1ccc(OP(=O)(Nc2ccc([N+](=O)[O-])cn2)Oc2ccc(C)cc2)cc1`, the inhibition (reported as % activation of signal) was inactive: 0.45%. As for `C[As](=O)(O)c1cccc(C(=O)O)c1`, the inhibition (reported as % activation of signal) was inactive: 0.43%. For `O=[As](O)(c1ccc(O)cc1)c1ccccc1O`, the inhibition (reported as % activation of signal) was inactive: 0.12%. In the case of `O=[N+]([O-])c1ccc(-c2cc([N+](=O)[O-])c(O)c([N+](=O)[O-])c2)cc1`, the inhibition (reported as % activation of signal) was inactive: -8.1%. On to `COc1cc(C(=O)NCC2(N3CCOCC3)CCCCC2)ccc1OCC(C)C`, for which the inhibition (reported as % activation of signal) was inactive: -0.84%.

For the compound `COc1ccc(N/C(=N/P(=O)(N2CCOCC2)N2CCOCC2)N2CCOCC2)cc1`, the inhibition (reported as % activation of signal) is inactive: 1.05%. On to `O=[N+]([O-])c1cc(Oc2ccc([N+](=O)[O-])cc2C(F)(F)F)cc([N+](=O)[O-])c1`, for which the inhibition (reported as % activation of signal) was inactive: -2.79%. Regarding `COc1ccc2nc(NP(=O)(c3ccccc3)c3ccccc3)sc2c1`, the inhibition (reported as % activation of signal) was inactive: 0.44%. For the compound `COc1cc(I)ccc1[As](=O)(O)O`, the inhibition (reported as % activation of signal) was inactive: 5.94%. In the case of `O=P1(N(CCCl)CCCl)OCCCN1CCCl` (centres undefined), the inhibition (reported as % activation of signal) is inactive: 0.47%. Consider `O=P1(N(CCCl)CCCl)Nc2ccccc2N1`, for which the inhibition (reported as % activation of signal) is inactive: -1.82%. For `O=C(OC1CN2CCC1CC2)C12CC3CC(CC(C3)C1)C2` (centres undefined), the inhibition (reported as % activation of signal) was inactive: 3.58%. In the case of `Cc1cc(=O)[nH]c(N[N+](=O)[O-])n1`, the inhibition (reported as % activation of signal) is inactive: 1.51%. With `Cc1c2c(nc3ccccc13)SC(C(Cl)Cl)C2` (centres undefined), the inhibition (reported as % activation of signal) was inactive: 1.65%.

Turning to `CCC(C)N(CC(C)C)C(=S)SC(NC(C)=O)C(Cl)(Cl)Cl` (centres undefined), the inhibition (reported as % activation of signal) was inactive: -13.4%. With `CCOC(=O)c1ccc(NC(=O)C(C)(CCl)SC)cc1` (centres undefined), the inhibition (reported as % activation of signal) is inactive: 0.33%. As for `O=C(OC1CN2CCC1CC2)c1cccc([N+](=O)[O-])c1` (centres undefined), the inhibition (reported as % activation of signal) was inactive: 2.73%. In the case of `CSc1ccc(Nc2c([N+](=O)[O-])cc([N+](=O)[O-])cc2[N+](=O)[O-])cc1`, the inhibition (reported as % activation of signal) was inactive: 4.55%.

With `O=C(COc1ccccc1)OC1CN2CCC1CC2` (centres undefined), the inhibition (reported as % activation of signal) was inactive: -2.21%. `O=C(Nc1ccncc1[N+](=O)[O-])c1ccc([N+](=O)[O-])cc1[N+](=O)[O-]`: the inhibition (reported as % activation of signal) is inactive: -0.38%. Consider `O=C(O)C(=O)c1ccc(N(CCCl)CCCl)cc1`, for which the inhibition (reported as % activation of signal) was inactive: 1.66%.

Consider `COP1(=S)c2c(C)nn(CCC#N)c2N=C(c2ccc(F)cc2)N1C` (centres undefined), for which the inhibition (reported as % activation of signal) was inactive: 0.42%.

With `COC(=O)C1(C)COP(=O)(N2CCCC2)OC1` (centres undefined), the inhibition (reported as % activation of signal) was inactive: -0.77%. As for `O=[N+]([O-])c1ccc(Nc2ccc(Oc3ccc([N+](=O)[O-])cc3[N+](=O)[O-])cc2)c([N+](=O)[O-])c1`, the inhibition (reported as % activation of signal) was inactive: 14.8%. As for `Cc1cc(SC(NC=O)C(Cl)(Cl)Cl)ncn1` (centres undefined), the inhibition (reported as % activation of signal) was inactive: 3.11%. For `O=P(Nc1ccccn1)(c1cccc2ccccc12)c1cccc2ccccc12`, the inhibition (reported as % activation of signal) was inactive: -0.36%. Next, `CCOC(=O)Nc1cccc([As](=O)(O)O)c1`: inactive: -11.2%; `CCCCOc1ccc(C(=O)NCC2(N3CCCCC3)CCCCC2)cc1OC`: inactive: -1.41%; `Cc1cc(SC(NC(=O)c2ccccc2)C(Cl)(Cl)Cl)nc(C(C)C)n1` (centres undefined): inactive: -0.74%. As to `COP(=O)(OC)N1CC1c1ccccc1` (centres undefined), the inhibition (reported as % activation of signal) is inactive: 1.66%.

On to `CC1CCNP(=O)(N(CCCl)CCCl)O1` (centres undefined), for which the inhibition (reported as % activation of signal) was inactive: 4.13%. On to `O=C(O)C(O)c1ccc(N(CCCl)CCCl)cc1` (centres undefined), for which the inhibition (reported as % activation of signal) was inactive: -7.39%.

In the case of `CCOC(=O)Nc1ccc([As](=O)(O)O)c(O)c1`, the inhibition (reported as % activation of signal) was inactive: 0.65%.
